Test results as given in PubChem BioAssay (NCI).
Where “and” joins values, the source holds several entries; their conditions need not be identical. Identical values can stand only once. The list shows a part of the results, in another mix than the full data. Some tests of the compounds listed are not included; inactive here does not mean inactive elsewhere. Calls of active or inactive are those of the source. No stated cut-off is given here; in the data, active means growth inhibition above about 70%; inactive means the rest.

Tests used:
[1] = NCI Yeast Anticancer Drug Screen. Data for the rad50 strain (AID 155);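 further: 0% = growth of vehicle-only cultures of the same strain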; settings: S. cerevisiae rad50 strain growth inhibition; at 50.0 µM; stronger effect = higher value
[2] = NCI Yeast Anticancer Drug Screen. Data for the mec2-1 strain (AID 157); settings: S. cerevisiae mec2-1 strain, at 50.0 µM, stronger effect = higher value
[3] = NCI Yeast Anticancer Drug Screen. Data for the sgs1 mgt1 strain (AID 161);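 further: 0% = growth of cultures given vehicle only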; settings: S. cerevisiae sgs1 mgt1 strain, at 50.0 µM, stronger effect = higher value
[4] = NCI Yeast Anticancer Drug Screen. Data for the cln2 rad14 strain (AID 165);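 further: 0% = growth equal to vehicle treated cultures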; settings: S. cerevisiae cln2 rad14 strain, at 50.0 µM, stronger effect = higher value
[5] = NCI Yeast Anticancer Drug Screen. Data for the bub3 strain (AID 167); settings: S. cerevisiae bub3 mutant strain, at 50.0 µM, stronger effect = higher value
[6] = NCI Yeast Anticancer Drug Screen. Data for the mlh1 rad18 strain (AID 175); settings: S. cerevisiae mlh1 rad18 strain growth inhibition; at 50.0 µM; stronger effect = higher value

Measured: growth inhibition

C=C(C)C(O)(C(=O)OC1C2CCN(CC2)C1C)c1ccccc1 (configuration not stated)
inactive: [1] -16.8% | [2] -10.8% | [3] -26.4% | [4] 7.75% | [5] 10.4% | [6] -3.2%

CN1CCC(OC(=O)C(O)(c2ccccc2)c2ccns2)CC1 (configuration not stated)
inactive: [1] 11.2% | [2] 2.4% | [3] -30.6% | [4] 7.1% | [5] 5% | [6] -10.3%

C=C(C)C#CC(O)(C(=O)OC1CN2CCC1CC2)C(C)C (configuration not stated)
inactive: [1] -24.9% | [2] -25.7% | [3] -13.3% | [4] -11.9% | [5] -32.5% | [6] -54.2%

CCC1C(OC(=O)C(O)(c2ccccc2)c2ccccc2)C(C)(C)C1N1CCCCC1 (configuration not stated)
inactive: [1] -2.65% | [2] 15.8% | [3] -11.9% | [4] 19.1% | [5] -3.15% | [6] -18.7%

CCCC#CC(O)(C(=O)OC1CN2CCC1CC2)C1CCCCC1 (configuration not stated)
inactive: [1] 47.7% | [2] 22.1% | [3] 36.5% | [4] 9.05% | [5] 24.9% | [6] 26.1%

O=C(OC1CCN(CC2CC2)CC1)C(O)(c1ccccc1)c1ccccc1
inactive: [1] 55% | [2] 36.6% | [3] 51.9% | [4] 36.4% | [5] 35.6% | [6] 53.4%

CC(=O)CI
inactive: [1] 6.1% | [2] 12.8% | [3] 4.75% | [4] -14.3% | [5] -7.25% | [6] -8%

C/C=C\C(O)(C(=O)OC1CN2CCC1CC2)C1CCCC1 (configuration not stated)
inactive: [1] 60% | [2] 32.5% | [3] 59.7% | [4] 35.5% | [5] 40.9% | [6] 52.4%

CC#CC(O)(C(=O)OC1CN2CCC1CC2)C(C)C (configuration not stated)
inactive: [1] 4.05% | [2] -0.6% | [3] 8.35% | [4] -3.05% | [5] 4.8% | [6] 6.9%

CC(C)/C=C\C(O)(C(=O)OC1CN2CCC1CC2)C1CCCC1 (configuration not stated)
inactive: [1] 47.5% | [2] 30.6% | [3] 46.8% | [4] 35.4% | [5] 41.6% | [6] 32.4%

N#CC(C#N)=Cc1cccc(Br)c1
inactive: [1] 7.3% | [2] 22.5% | [3] 18.2% | [4] 14.1% | [5] 26% | [6] 18%

O=C(CBr)c1ccc(Cl)cc1
inactive: [1] 36.4% | [2] 10.6% | [3] 23.4% | [4] 21.3% | [5] 31.6% | [6] 44.2%

CCCCCC#CC(O)(C(=O)OC1CCN(C)CC1)c1ccccc1 (configuration not stated)
inactive: [1] 8% | [2] 7.4% | [3] 4.1% | [4] -9.7% | [5] 6.55% | [6] -4.85%

CC#CC(O)(C(=O)OC1CN2CCC1CC2)C1CC1 (configuration not stated)
inactive: [1] 14.2% | [2] 21.8% | [3] -1.85% | [4] -12.2% | [5] -7.65% | [6] -4.4%

O=C(OC1CN2CCC1CC2)C(c1ccccc1)C1(O)CCCC1 (configuration not stated)
inactive: [1] -14.8% | [2] 4.35% | [3] -10.7% | [4] -15.8% | [5] -2.65% | [6] -15.6%

CCC#CC(O)(C(=O)OC1CN2CCC1CC2)C1CCCC1 (configuration not stated)
inactive: [1] 35.4% | [2] 30.4% | [3] 49.6% | [4] 35.5% | [5] 40.2% | [6] 46.3%

C=CCN1CCN(C(Cc2ccccc2)c2ccccc2)CC1 (configuration not stated)
inactive: [1] 27.8% | [2] 3% | [3] 21.9% | [4] 26.4% | [5] 18.1% | [6] 42.7%

CC(C)C#CC(O)(C(=O)OC1C2CCN(CC2)C1C)C1CCCCC1 (configuration not stated)
inactive: [1] 27.1% | [2] 18.6% | [3] 22.4% | [4] 14.6% | [5] 20.6% | [6] 25.6%

CC(C)C(O)(C(=O)O/C=C1\CC2CCN1CC2)c1ccccc1 (configuration not stated)
inactive: [1] 23.4% | [2] 17.2% | [3] 27.9% | [4] 24% | [5] 47.4% | [6] 38.8%

N#CC(C#N)=Cc1ccccc1Cl
inactive: [1] 15.8% and 8.45% | [2] 18.1% and -7.65% | [3] -3.85% and -14.7% | [4] 23.4% and -12.6% | [5] 10.1% and -0.05% | [6] 17.9% and 26.1%

C=C(C)C#CC(O)(C(=O)OC1C2CCN(CC2)C1C)c1ccccc1 (configuration not stated)
inactive: [1] -20.4% | [2] -18.8% | [3] -21.6% | [4] -43.5% | [5] -41.8% | [6] -50.4%

O=C(OC1CN2CCC1CC2)C(O)(/C=C/c1ccccc1)c1ccccc1 (configuration not stated)
inactive: [1] 24.1% | [2] 16.2% | [3] 24.2% | [4] 2.45% | [5] 11.1% | [6] 39.8%
